Sampled rows, rich in hits. Any-hit rate of the full collection: about 16%.
DT40 TDP1 no CPT: qHTS for Inhibitors of human tyrosyl-DNA phosphodiesterase 1 (TDP1): qHTS in cells in absence of CPT. DT40 Tdp1-/- hTDP1 cells, no CPT, ATP luminescence, 48 h. 420,000 compounds, 15% hits. Potency, µM (highest dose often 46.2 µM), for the others: top-dose activity change, negative = growth inhibition, most hits filed as inhibitors. AID 686978, 2013; further: potency means the concentration at half of the fitted maximal effect; on the % scale 0 is the no-effect control and ±100 the full control effect; nearly all actives have a fitted effect of over 55% in size
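Compound effects on proliferation are scored in DT40 Tdp1-/-;hTDP1 cells in the absence of CPT. ATP levels (CellTiter-Glo luminescence) are recorded after a ≥48 hr, 37 °C incubation.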
miR-21 FLuc: miR-21 reporter, rising signal; Potency, µM (doses to about 38.3 µM), without a hit: at the top dose reporter change, positive = more light; HeLa miR-21 FLuc reporter, luciferase, 48 h; 340,000 tested, under 10 active; active = well fitted rising curve with a large enough effect; inconclusive = small, poorly fitted or top-dose-only effect; inactive = no such curve, though single readings can be large or run the other way;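 further: % of control where 0% means no effect; miR-21 action dims this reporter so a rising signal means less miR-21 action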
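HeLa cells stably expressing CMV-driven firefly luciferase with a downstream miR-21 binding sequence, endogenously expressing miR-21, were treated with titrations (up to about 40uM final) for 48 hours at 37 degree Celsius. Luciferase luminescence was read after lysis.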
uPA surface inh: inhibitors of cell surface uPA generation; cell surface uPA generation assay, qHTS; Potency, µM (series often up to 38.3 µM), for the others: at the highest dose activity change, negative = inhibition, usual class: inhibitors; 330,000 compounds, 0.31% hits; AID 540303; active means well fitted inhibition curve with a large enough effect; inconclusive means small, poorly fitted or top-dose-only effect; inactive means no such curve, though single readings can be large or run the other way; tested in mouse RAW 264.7 cells; further: potency means the concentration at half of the fitted maximal effect; on the % scale 0 is the no-effect control and ±100 the full control effect; nearly all actives have a fitted effect of over 55% in size
TDP1 block: blocks human tyrosyl-DNA phosphodiesterase 1 | recombinant TDP1, AlphaScreen DNA substrate cleavage | Potency, µM (titrated, usually from 130 µM), for inactives: top-dose activity change, negative = inhibition, most hits filed as inhibitors | 350,000 compounds, 0.28% hits; further: potency means the concentration at half of the fitted maximal effect; on the % scale 0 is the no-effect control and ±100 the full control effect; nearly all actives have a fitted effect of over 40% in size
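Compounds were preincubated with Tdp1 (1 nM final) for 15 min at room temperature before substrate (15 nM final) started a 5 min reaction; beads (10 ug/ml final) were then added for 10 min before AlphaScreen detection.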
DT40 TDP1 CPT: DT40-hTDP1 cell growth loss with CPT; chicken DT40 Tdp1-/-;hTDP1 cells + 20 nM CPT, ATP luminescence, 48 h; 420,000 compounds, 12% hits; AID 686979; Potency, µM (highest dose often 46.2 µM), inactives show top-dose activity change, negative = growth inhibition, most hits filed as inhibitors; further: potency means the concentration at half of the fitted maximal effect; on the % scale 0 is the no-effect control and ±100 the full control effect; nearly all actives have a fitted effect of over 55% in size
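Chicken DT40 Tdp1-/- cells stably complemented with human TDP1 were seeded at 400 cells/well in medium containing 20 nM camptothecin, exposed to pin-transferred compounds, and grown at 37 °C for at least 48 hr. Viability was read as ATP luminescence.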
Numbers without * were called inactive; ? = inconclusive; / = not tested or not shown; [ ] = another dose, or the depositor's remark. Unless noted, the call rests on the fitted dose curve; in most records, active means well fitted curve in the direction sought with a large enough effect; inconclusive means small, poorly fitted or top-dose-only effect, or another doubt; inactive means no such curve, though single readings can be large; an effect the other way counts as inactive or inconclusive.

SMILES	DT40 TDP1 no CPT	miR-21 FLuc	uPA surface inh	TDP1 block	DT40 TDP1 CPT
Cc1ccccc1NC(=O)CCS(=O)(=O)c1cc(Br)cc2c1N(C(=O)C1CC1)CC2	-3%	1%	/	-2%[12.3 µM]	-10%
O=C(NCCCl)C1Cc2c(ccc3ccccc23)O1 (configuration not stated)	-19%	-4%	/	-3%	1%
Cn1nc(-c2ccccc2)c(-c2ccccc2)c(C(=O)Nc2ccccc2C(N)=O)c1=O	?	-8%	/	9%	?
CC(C)(C)NC(=O)[C@]1(C)CCC[C@@]2(C)C3CC[C@@]4(C)C[C@]3(CCC21)CC4=O (some centres not stated)	-25%	/	-5%	0%	?
C[C@@]12CCC3[C@@](CCC4[C@@]3(C)CCC[C@@]4(C)C(=O)O)(CC1=O)C2 (some centres not stated)	-14%	/	5%	1%	2%
CC(C)(C)CNC(=O)[C@]1(C)CCC[C@@]2(C)C3CC[C@@]4(C)C[C@]3(CCC21)CC4=O (some centres not stated)	23µM*	/	-4%	1%	?
C[C@@]12CCC3[C@@](CCC4[C@@]3(C)CCC[C@@]4(C)C(=O)NCc3ccccc3)(CC1=O)C2 (some centres not stated)	18µM*	/	-2%	-3%	?
Cc1ccc(C)c(C(=O)CSc2nc3cc(C(=O)NC4CCCC4)ccc3c(=O)n2CC2CCCO2)c1 (configuration not stated)	8.2µM*	4%	/	5%	18µM*
O=C(CSc1nc2cc(C(=O)NC3CCCC3)ccc2c(=O)n1CC1CCCO1)c1cccc(Cl)c1 (configuration not stated)	23µM*	13%	/	0%	21µM*
COc1ccc(NC(=S)N(CCN(C)C)C(C)c2ccco2)cc1Cl (configuration not stated)	16µM*	-17%	-1%	5%	-26%
CN(C)CC(=O)N[C@@H]1C=C[C@@H](CC(=O)NCCN2CCCCC2)O[C@@H]1CO	-4%	/	/	/	2%
Cc1ccc(Cl)c(OCCN2CCc3ccccc3C2)c1	23µM*	1%	9%	5%	?
COc1ccc(OC)c(NC(=O)c2ccc(CN3CCc4ccccc4C3)cc2)c1	?	4%	5%	/	?
COc1ccc(NC(=O)c2ccc(CN3CCc4ccccc4C3)cc2)c(OC)c1	?	10%	1%	/	23µM*
COc1ccc(CN2CCc3ccc(NC(=O)CCc4ccccc4OC)cc3C2)c(O)c1	23µM*	20%	-11%	5%	15µM*
COc1cc(CN2CCc3ccccc3C2)ccc1O	0.46µM*	?	2.8µM*	-2%	0.92µM*
Cc1ccnc2ccc(Br)cc12	-21%	/	/	/	-25%
C/C=C/c1ccc(OCCN2CCc3ccccc3C2)c(OC)c1	?	-6%	1%	-3%	?
O=C(Nc1cccc(Br)c1)c1ccc(CN2CCc3ccccc3C2)cc1	16µM*	10%	14%	/	?
C=CCc1ccc(OCCN2CCc3ccccc3C2)c(OC)c1	16µM*	-18%	-4%	-2%	?

Of the compounds above, 3 have bromine.
SMILES	DT40 TDP1 no CPT	miR-21 FLuc	uPA surface inh	TDP1 block	DT40 TDP1 CPT
Cc1ccccc1NC(=O)CCS(=O)(=O)c1cc(Br)cc2c1N(C(=O)C1CC1)CC2	-3%	1%	/	-2%[12.3 µM]	-10%
Cc1ccnc2ccc(Br)cc12	-21%	/	/	/	-25%
O=C(Nc1cccc(Br)c1)c1ccc(CN2CCc3ccccc3C2)cc1	16µM*	10%	14%	/	?

Grouped by structure, the entries above with four or more nitrogen atoms
SMILES	DT40 TDP1 no CPT	miR-21 FLuc	uPA surface inh	TDP1 block	DT40 TDP1 CPT
Cn1nc(-c2ccccc2)c(-c2ccccc2)c(C(=O)Nc2ccccc2C(N)=O)c1=O	?	-8%	/	9%	?
CN(C)CC(=O)N[C@@H]1C=C[C@@H](CC(=O)NCCN2CCCCC2)O[C@@H]1CO	-4%	/	/	/	2%

Next section.
SMILES	DT40 TDP1 no CPT	miR-21 FLuc	uPA surface inh	TDP1 block	DT40 TDP1 CPT
COc1ccccc1C(=O)NCCC(=O)Nc1cccnc1	23%	-1%	-1%	3%	-18%
Cc1ccc(C(=O)N(Cc2ccccc2)C(C)(C)C)cc1C	15µM*	-1%	-3%	-3%	16µM*
CC(C)(C)N(Cc1ccccc1)C(=O)c1ccc(Br)o1	?	-3%	3%	-5%	?
Cn1c(CSCc2ccc(F)cc2)nnc1SCC(=O)Nc1cccc(C(=O)O)c1	0%	0%	3%	0%	-5%
Cc1ccc(NC(=O)c2ccc(CN3C(=O)CCn4nc(C)cc43)cc2)c(Cl)c1	?	-13%	/	3%	?
Cc1cc2n(n1)CCC(=O)N2Cc1ccc(C(=O)Nc2cc(Cl)ccc2C)cc1	21µM*	-1%	/	6%	?
Cc1cc2n(n1)CCC(=O)N2Cc1ccc(C(=O)Nc2cccc(C(F)(F)F)c2)cc1	15µM*	13%	/	6%	15µM*
COc1cc(C2C(=O)N(C3CCCCC3)CC(=O)N2CCC2=CCCCC2)ccc1OC(C)C (configuration not stated)	-12%	-2%	/	8%	-15%
CCOc1ccc(C2C(=O)N(C3CCCCCC3)CC(=O)N2CCC2=CCCCC2)cc1OC (configuration not stated)	16µM*	1%	/	8%	23µM*
CCCOc1ccc(C2C(=O)N(C3CCC(C)CC3)CC(=O)N2CCC2=CCCCC2)cc1OC (configuration not stated)	-24%	-2%	/	-5%	?
COc1ccc(C2C(=O)N(C3CCC(C)CC3)CC(=O)N2CCC2=CCCCC2)cc1OC (configuration not stated)	23µM*	-10%	/	3%	23µM*
COc1cc(C2C(=O)N(C3CCCCCC3)CC(=O)N2CCC2=CCCCC2)ccc1OC(C)C (configuration not stated)	21µM*	-2%	/	5%	18µM*
Cc1nn(CCO)c(N)c1C1(O)C(=O)Nc2c(Cl)cc(Cl)cc21 (configuration not stated)	3.3µM*	17%	-11%	5%	4.1µM*
CCOc1cc(/C=N/Nc2nc(C)cc(=O)[nH]2)ccc1O	6%	0%	2%	/	-23%
Cc1cc(=O)[nH]c(N/N=C/c2ccccc2Cl)n1	?	-9%	-6%	/	-21%
CCN(CC)c1ccc(/C=N/Nc2nc(C)cc(=O)[nH]2)c(O)c1	0.021µM*	4%	-22%	8%	0.021µM*
Cc1cc(=O)[nH]c(NN=Cc2cc(Br)ccc2O)n1	2.9µM*	/	-12%	/	2.6µM*
CC(=O)N1N=C(c2ccc(C)cc2)CC1c1cn(-c2ccccc2)nc1-c1cccs1 (configuration not stated)	?	-4%	/	-2%	16µM*
COc1cccc(C2=NN(C(C)=O)C(c3cn(-c4ccccc4)nc3-c3cccs3)C2)c1 (configuration not stated)	13%	0%	/	-3%	5%
Cc1cc(C)c2[nH]c3nc(SCC(=O)O)nnc3c2c1	2%	-11%	14%	/	-12%
CCCCCSc1nnc2c(n1)[nH]c1c(C)cccc12	2.9µM*	-24%	/	/	9.2µM*
CCn1nc(C)c(CN2CCCC(CNS(=O)(=O)c3ccc(OC)cc3)C2)c1C (configuration not stated)	?	1%	-15%	6%	21µM*

Bioassay records: PubChem, National Center for Advancing Translational Sciences (NCATS)
